In EP0961591B1, “METHOD TO ENHANCE TISSUE AC[…] RADIOLABELED COMPOUNDS” (BOARD OF SUPERVISORS OF LOUISIANA STATE UNIVERSITY AND …, priority 1997, dated 1999):

System: tumor in the left side of the neck
[1] = Bolus Month 1, 179.9 mCi injected, 24 hr after injection
[2] = Bolus Month 2, 160.6 mCi injected, 24 hr after injection
[3] = Bolus Month 3, 182.6 mCi injected, 24 hr after injection
[4] = Bolus Month 4, 169.5 mCi injected, 24 hr after injection

Substance: (^111In-DTPA-D-Phe^1)-octreotide [^111In-pentetreotide]
- External Dose Accumulation [1]: 80 mR/hr
- Ratio [1]: 0.4447 mR/hr/mCi
- External Dose Accumulation [2]: 28 mR/hr
- Ratio [2]: 0.1743 mR/hr/mCi
- External Dose Accumulation [3]: 33.20 mR/hr
- Ratio [3]: 0.1818 mR/hr/mCi
- External Dose Accumulation [4]: 27.2 mR/hr
- Ratio [4]: 0.1605 mR/hr/mCi
- Ratio (Bolus Month 5, 178.8 mCi injected, 24 hr after injection): 0.19 mR/hr/mCi and 0.1924 mR/hr/mCi
- External Dose Accumulation (Bolus Month 5, 178.8 mCi injected, 72 hr after injection): 19.85 mR/hr
- External Dose Accumulation (Bolus Month 5, 178.8 mCi injected, 120 hr after injection): 11.46 mR/hr
- External Dose Accumulation (Bolus Month 5, 178.8 mCi injected, 216 hr after injection): 3.82 mR/hr
- area under the curve (Infusion 1): 10,398 mR
- External Dose Accumulation (Infusion 1 (over 72 hr, 2.5 mCi/hr), 0 hr from initial infusion): 2.0 mR/hr
- External Dose Accumulation (Infusion 1 (over 72 hr, 2.5 mCi/hr), 24.5 hr from initial infusion): 54.8 mR/hr
- External Dose Accumulation (Infusion 1 (over 72 hr, 2.5 mCi/hr), 49 hr from initial infusion): 69.7 mR/hr
- External Dose Accumulation (Infusion 1 (over 72 hr, 2.5 mCi/hr), 137 hr from initial infusion): 32.9 mR/hr
- External Dose Accumulation (Infusion 1 (over 72 hr, 2.5 mCi/hr), 161 hr from initial infusion): 25 mR/hr
- External Dose Accumulation (Infusion 1 (over 72 hr, 2.5 mCi/hr), 185 hr from initial infusion): 20 mR/hr
- External Dose Accumulation (Infusion 1 (over 72 hr, 2.5 mCi/hr), 214 hr from initial infusion): 15.4 mR/hr
- Maximal Ratio (Infusion 1, first infusion period (24 hr, 53.52 mCi delivered)): 1.028 mR/hr/mCi
- Maximal Ratio (Infusion 1, second infusion period (24 hr, 52.62 mCi delivered)): 0.6595 mR/hr/mCi
- Maximal Ratio (Infusion 1, third infusion period (24 hr, 50.75 mCi delivered)): 0.4462 mR/hr/mCi
- area under the curve (Infusion 2): 37,370 mR
- External Dose Accumulation (Infusion 2 (389.22 mCi total), 0 hr from initial infusion): 2 mR/hr
- External Dose Accumulation (Infusion 2 (389.22 mCi total), 20 hr from initial infusion): 181 mR/hr
- External Dose Accumulation (Infusion 2 (389.22 mCi total), 22 hr from initial infusion): 171 mR/hr
- External Dose Accumulation (Infusion 2 (389.22 mCi total), 47 hr from initial infusion): 183 mR/hr
- External Dose Accumulation (Infusion 2 (389.22 mCi total), 65 hr from initial infusion): 220 mR/hr
- External Dose Accumulation (Infusion 2 (389.22 mCi total), 144 hr from initial infusion): 81 mR/hr
- peak activity (Infusion 2, 189.8 mCi infused in the first 24 hr): 220 mR/hour
- Maximal Ratio (Infusion 2, first infusion period (20 hr, 189.76 mCi delivered)): 1.107 mR/hr/mCi
- Maximal Ratio (Infusion 2, second infusion period (22 hr, 108.62 mCi delivered)): 0.6703 mR/hr/mCi
- Maximal Ratio (Infusion 2, third infusion period (24 hr, 90.84 mCi delivered)): 0.5652 mR/hr/mCi
- area under the curve (Infusion 3): 41,993 mR
- External Dose Accumulation (Infusion 3 (346.49 mCi total), 0 hr from initial infusion): 0.68 mR/hr
- External Dose Accumulation (Infusion 3 (346.49 mCi total), 2 hr from initial infusion): 36 mR/hr
- External Dose Accumulation (Infusion 3 (346.49 mCi total), 3 hr from initial infusion): 90 mR/hr
- External Dose Accumulation (Infusion 3 (346.49 mCi total), 4 hr from initial infusion): 144 mR/hr
- External Dose Accumulation (Infusion 3 (346.49 mCi total), 8 hr from initial infusion): 260 mR/hr
- External Dose Accumulation (Infusion 3 (346.49 mCi total), 9 hr from initial infusion): 270 mR/hr
- External Dose Accumulation (Infusion 3 (346.49 mCi total), 13 hr from initial infusion): 400 mR/hr
- External Dose Accumulation (Infusion 3 (346.49 mCi total), 16 hr from initial infusion): 470 mR/hr
- External Dose Accumulation (Infusion 3 (346.49 mCi total), 17 hr from initial infusion): 460 mR/hr
- External Dose Accumulation (Infusion 3 (346.49 mCi total), 22 hr from initial infusion): 380 mR/hr
- External Dose Accumulation (Infusion 3 (346.49 mCi total), 23 hr from initial infusion): 375 mR/hr
- External Dose Accumulation (Infusion 3 (346.49 mCi total), 25 hr from initial infusion): 360 mR/hr
- External Dose Accumulation (Infusion 3 (346.49 mCi total), 26 hr from initial infusion): 350 mR/hr
- External Dose Accumulation (Infusion 3 (346.49 mCi total), 29 hr from initial infusion): 345 mR/hr
- External Dose Accumulation (Infusion 3 (346.49 mCi total), 30 hr from initial infusion): 340 mR/hr
- External Dose Accumulation (Infusion 3 (346.49 mCi total), 31 hr from initial infusion): 335 mR/hr
- External Dose Accumulation (Infusion 3 (346.49 mCi total), 40 hr from initial infusion): 310 mR/hr
- External Dose Accumulation (Infusion 3 (346.49 mCi total), 46 hr from initial infusion): 280 mR/hr
- External Dose Accumulation (Infusion 3 (346.49 mCi total), 47 hr from initial infusion): 275 mR/hr
- External Dose Accumulation (Infusion 3 (346.49 mCi total), 67 hr from initial infusion): 230 mR/hr
- External Dose Accumulation (Infusion 3 (346.49 mCi total), 90 hr from initial infusion): 179 mR/hr
- peak activity (Infusion 3, 301 mCi infused in the first 24 hr): 470 mR/hour
- Maximal Ratio (Infusion 3, first infusion period (17 hr, 301.07 mCi delivered)): 1.561 mR/hr/mCi
- highest mR/mCi ratio (Infusion Dose 1, after the first 24 hr infusion): 1.03 mR/mCi
- area under the curve (bolus injection): 4,030 mR

Where “and” joins values, the source holds several entries; their conditions need not be identical. Equal values may be shown once. Read-outs that look alike come from different tables or passages of the source.
